Measurements from PMC11995211, “Design, Synthesis, and Evaluation of a New Fluorescent Ligand for the M2 Muscarinic Acetylcholine Receptor” (ACS Medicinal Chemistry Letters, 2025).

Chains of the proteins cited; added tags and fusions are not shown.
UniProt P08912, whole entry: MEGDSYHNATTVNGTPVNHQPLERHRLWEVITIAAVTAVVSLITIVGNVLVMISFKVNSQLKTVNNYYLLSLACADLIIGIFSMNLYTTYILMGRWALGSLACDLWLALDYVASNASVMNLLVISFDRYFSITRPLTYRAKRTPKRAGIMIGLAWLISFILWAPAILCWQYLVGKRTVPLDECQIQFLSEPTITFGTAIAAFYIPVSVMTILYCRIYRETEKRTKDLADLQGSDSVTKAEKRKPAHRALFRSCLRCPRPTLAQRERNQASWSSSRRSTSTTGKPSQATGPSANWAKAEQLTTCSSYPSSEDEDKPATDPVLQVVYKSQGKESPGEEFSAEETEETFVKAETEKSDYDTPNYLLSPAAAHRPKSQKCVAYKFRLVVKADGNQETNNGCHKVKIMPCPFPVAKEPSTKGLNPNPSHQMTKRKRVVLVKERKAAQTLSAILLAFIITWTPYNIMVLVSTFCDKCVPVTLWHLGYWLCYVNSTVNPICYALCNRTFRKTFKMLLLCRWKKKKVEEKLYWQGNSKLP
UniProt P20309, whole entry: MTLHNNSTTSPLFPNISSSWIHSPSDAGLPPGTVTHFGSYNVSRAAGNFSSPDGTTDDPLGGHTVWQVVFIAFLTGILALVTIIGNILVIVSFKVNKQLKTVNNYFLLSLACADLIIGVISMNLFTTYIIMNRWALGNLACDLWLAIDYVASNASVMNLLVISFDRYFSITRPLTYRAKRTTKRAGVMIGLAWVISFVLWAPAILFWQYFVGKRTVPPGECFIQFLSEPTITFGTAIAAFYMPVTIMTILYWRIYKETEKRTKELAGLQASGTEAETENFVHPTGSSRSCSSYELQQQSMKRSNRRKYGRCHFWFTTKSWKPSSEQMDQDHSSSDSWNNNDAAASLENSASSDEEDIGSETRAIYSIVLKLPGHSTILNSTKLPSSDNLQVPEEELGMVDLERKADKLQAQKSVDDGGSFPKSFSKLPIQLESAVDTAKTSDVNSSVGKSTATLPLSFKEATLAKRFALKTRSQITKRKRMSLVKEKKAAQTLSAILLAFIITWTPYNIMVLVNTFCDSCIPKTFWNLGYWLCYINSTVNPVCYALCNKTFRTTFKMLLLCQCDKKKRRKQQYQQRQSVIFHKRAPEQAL

Experiments:
rats = settings: literature statement, reference numbers not given; cited from earlier work
hM5R = biological target: T1, hM5R (Homo sapiens, UniProt P08912); experiment: Radioligand competition binding, [3H]-scopolamine (N-methyl), CHO cell membranes, hM5R; settings: mean ± SD, n = 3; membranes from CHO cells transfected with hM5R; read-out: Receptor Ki M5
T1 construct: expressed in transfected cells; host or cells: CHO cell membranes

hM3R = biological target: T2, hM3R (Homo sapiens, UniProt P20309); experiment: Radioligand competition binding, [3H]-scopolamine (N-methyl), CHO cell membranes, hM3R; settings: mean ± SD, n = 3; membranes from CHO cells transfected with hM3R; read-out: Receptor Ki M3
T2 construct: expressed in transfected cells; host or cells: CHO cell membranes

For `Nc1ccccc1C(=O)N1CCC(N2CCC(Cc3ccc(S(=O)(=O)c4cccc(Cl)c4)cc3)CC2)CC1` [Compound 28], the in vivo efficacy (rats) is given as “in vivo efficacy”, the Ki (hM5R) is given as 0.119 ± 0.02 µM and the Ki (hM3R) is given as 0.193 ± 0.023 µM.
